## Ab-14 heavy chain CDR variants: yeast mating affinities

Binding partner: SARS-CoV-2 spike HR2 peptide, sequence PDVDLGDISGINAS.

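In library AAYL49, one, two or three CDR residues were substituted; doubles and triples were drawn at random. The assay is AlphaSeq: two haploid yeast populations carry antibody and antigen on their surface. The frequency of each diploid, read from paired DNA barcodes, reflects how well the two displayed proteins bind. The ratio of observed to expected reads was calibrated, replicate by replicate, on BCL2-family standards whose Kd was known from biolayer interferometry. Mating was done three times.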

The variants keep the light chain, the linker and the frameworks of Ab-14 (scFv order VH, the linker GGGGSGGGGSGGGGS, VL).
VH: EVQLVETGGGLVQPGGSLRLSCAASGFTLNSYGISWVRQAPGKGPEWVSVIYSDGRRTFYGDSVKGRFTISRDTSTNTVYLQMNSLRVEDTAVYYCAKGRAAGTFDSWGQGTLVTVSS
VL: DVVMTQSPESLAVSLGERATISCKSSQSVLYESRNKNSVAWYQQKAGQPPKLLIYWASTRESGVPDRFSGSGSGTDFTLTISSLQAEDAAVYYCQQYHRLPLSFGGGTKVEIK

Variants are written as CDR1, CDR2 and CDR3 of the heavy chain (limits as in the source). Parent: GFTLNSYGIS, VIYSDGRRTFYGDSVK, GRAAGTFDS. Numbers give log10(Kd / nM), so 0 is 1 nM and 3 is 1 µM. Smaller is tighter. A mean of the replicates is given; it leaves out those without a signal. A pair that was not seen in any replicate is written "nd"; this usually means weak binding, but a binder can also be missed.

{"CDR-H1": "GFTLNAYGIS", "CDR-H2": "NIYSDGRRTFYGDSYK", "CDR-H3": "GRAAGTFDS", "log10 Kd (nM), mean": "nd", "seen in": "0/3"}
{"CDR-H1": "GRTLNSYGIS", "CDR-H2": "VIFSDGRRTFYGDSVK", "CDR-H3": "GRAAGTFDS", "log10 Kd (nM), mean": "nd", "seen in": "0/3"}
{"CDR-H1": "MGTLNSYGIS", "CDR-H2": "VIYSDYRRTFYGDSVK", "CDR-H3": "GRAAGTFDS", "log10 Kd (nM), mean": "nd", "seen in": "0/3"}
{"CDR-H1": "GFCLNSYGIS", "CDR-H2": "VIYSDGRRQFYGDSVK", "CDR-H3": "GRAFGTFDS", "log10 Kd (nM), mean": "2.08", "seen in": "3/3"}
{"CDR-H1": "GFTFNSWGIS", "CDR-H2": "VIYSDGRRTFYGDSVK", "CDR-H3": "GRAFGTFDS", "log10 Kd (nM), mean": "nd", "seen in": "0/3"}
{"CDR-H1": "GFTLSSYGIS", "CDR-H2": "VIYSDGRRTMYGDTVK", "CDR-H3": "GRAAGTFDS", "log10 Kd (nM), mean": "3.52", "seen in": "3/3"}
{"CDR-H1": "GFTLNSYGHS", "CDR-H2": "VIYSDTRRTFEGDSVK", "CDR-H3": "GRAAGTFDS", "log10 Kd (nM), mean": "nd", "seen in": "0/3"}
{"CDR-H1": "GVTLLSYGIS", "CDR-H2": "VIYSDGRRTFYGDSVK", "CDR-H3": "GRAAGTFDS", "log10 Kd (nM), mean": "2.05", "seen in": "2/3"}
{"CDR-H1": "GFTLNSYGIS", "CDR-H2": "VIYSDGRRTFGGDNVK", "CDR-H3": "GRAAGTFDS", "log10 Kd (nM), mean": "nd", "seen in": "0/3"}
{"CDR-H1": "GFTLNSYGIS", "CDR-H2": "VIYSDGRRTFYDYSCK", "CDR-H3": "GRAAGTFDS", "log10 Kd (nM), mean": "3.23", "seen in": "3/3"}
{"CDR-H1": "GFTLNSYGIW", "CDR-H2": "VICSDGRRTFYGDSVK", "CDR-H3": "GRAAGTFDS", "log10 Kd (nM), mean": "nd", "seen in": "0/3"}
{"CDR-H1": "GFTLGSKGIW", "CDR-H2": "VIYSDGRRTFYGDSVK", "CDR-H3": "GRAAGTFDS", "log10 Kd (nM), mean": "nd", "seen in": "0/3"}
{"CDR-H1": "GFTLNQYGIS", "CDR-H2": "VYYSVGRRTFYGDSVK", "CDR-H3": "GRAAGTFDS", "log10 Kd (nM), mean": "nd", "seen in": "0/3"}
{"CDR-H1": "GFTLNSYGIS", "CDR-H2": "VIYSDGRRTFYGTSVK", "CDR-H3": "WRAAGTFVS", "log10 Kd (nM), mean": "2.15", "seen in": "1/3"}
{"CDR-H1": "GFTLNSYGIS", "CDR-H2": "VIISDGRRIFYGDSVK", "CDR-H3": "GRAAGTFDS", "log10 Kd (nM), mean": "3.92", "seen in": "1/3"}
{"CDR-H1": "GFTLNSYGIS", "CDR-H2": "VEYSDGHRTFYGDSVK", "CDR-H3": "VRAAGTFDS", "log10 Kd (nM), mean": "nd", "seen in": "0/3"}
{"CDR-H1": "GFTLNSYGIS", "CDR-H2": "VIYSDIVRTFYGDSVK", "CDR-H3": "GRAAGTWDS", "log10 Kd (nM), mean": "nd", "seen in": "0/3"}
{"CDR-H1": "GFTLNGYGIS", "CDR-H2": "VIYSDGRRTFYGDSFK", "CDR-H3": "GRAAGSFDS", "log10 Kd (nM), mean": "nd", "seen in": "0/3"}
{"CDR-H1": "GFTLNSYGIS", "CDR-H2": "VIYSDGRRTFRHDSVK", "CDR-H3": "GRAAGTFKS", "log10 Kd (nM), mean": "4.63", "seen in": "1/3"}
{"CDR-H1": "GFLLNVYGIS", "CDR-H2": "VIYSDGRRTFYGYSVK", "CDR-H3": "GRAAGTFDS", "log10 Kd (nM), mean": "4.15", "seen in": "2/3"}
{"CDR-H1": "GFTLNSYPIS", "CDR-H2": "VIYSDGRRTFYGDSVF", "CDR-H3": "GRAAQTFDS", "log10 Kd (nM), mean": "5.18", "seen in": "1/3"}
{"CDR-H1": "GFTLNSYGIS", "CDR-H2": "VIYSDGRRTFIGDMVK", "CDR-H3": "GRAAGTFDS", "log10 Kd (nM), mean": "3.93", "seen in": "2/3"}
{"CDR-H1": "GFTLNSRGIS", "CDR-H2": "VIYSDGRRTFYGDSVK", "CDR-H3": "GRAAGTFDE", "log10 Kd (nM), mean": "5.45", "seen in": "2/3"}
{"CDR-H1": "RITLNSYGIS", "CDR-H2": "VIYSDGRRTFYGDSVK", "CDR-H3": "GRAAMTFDS", "log10 Kd (nM), mean": "nd", "seen in": "0/3"}
{"CDR-H1": "GFTLNGNGIS", "CDR-H2": "VIYSDGRRTFYGDSVK", "CDR-H3": "GRAAGTFDK", "log10 Kd (nM), mean": "4.05", "seen in": "2/3"}

Background: pairings of library AAYL49 with three empty control strains gave a value in 15% of cases (median 4.06, 5th percentile 2.83). Values in that range, when seen in few replicates, are hard to tell from nonspecific mating. Parent in this assay: reference entry 0.65, copy in this library 4.11 (one replicate of three).

Values reported by Engelhart et al. 2022, doi:10.1038/s41597-022-01779-4 (FLAb copy).